# Source: PubChem BioAssay AID2227 (Johns Hopkins Ion Channel Center, 2009)
# Sequences of proteins named here, by UniProt entry; tags and fusion partners are left off.
# UniProt Q9QUQ5, whole entry: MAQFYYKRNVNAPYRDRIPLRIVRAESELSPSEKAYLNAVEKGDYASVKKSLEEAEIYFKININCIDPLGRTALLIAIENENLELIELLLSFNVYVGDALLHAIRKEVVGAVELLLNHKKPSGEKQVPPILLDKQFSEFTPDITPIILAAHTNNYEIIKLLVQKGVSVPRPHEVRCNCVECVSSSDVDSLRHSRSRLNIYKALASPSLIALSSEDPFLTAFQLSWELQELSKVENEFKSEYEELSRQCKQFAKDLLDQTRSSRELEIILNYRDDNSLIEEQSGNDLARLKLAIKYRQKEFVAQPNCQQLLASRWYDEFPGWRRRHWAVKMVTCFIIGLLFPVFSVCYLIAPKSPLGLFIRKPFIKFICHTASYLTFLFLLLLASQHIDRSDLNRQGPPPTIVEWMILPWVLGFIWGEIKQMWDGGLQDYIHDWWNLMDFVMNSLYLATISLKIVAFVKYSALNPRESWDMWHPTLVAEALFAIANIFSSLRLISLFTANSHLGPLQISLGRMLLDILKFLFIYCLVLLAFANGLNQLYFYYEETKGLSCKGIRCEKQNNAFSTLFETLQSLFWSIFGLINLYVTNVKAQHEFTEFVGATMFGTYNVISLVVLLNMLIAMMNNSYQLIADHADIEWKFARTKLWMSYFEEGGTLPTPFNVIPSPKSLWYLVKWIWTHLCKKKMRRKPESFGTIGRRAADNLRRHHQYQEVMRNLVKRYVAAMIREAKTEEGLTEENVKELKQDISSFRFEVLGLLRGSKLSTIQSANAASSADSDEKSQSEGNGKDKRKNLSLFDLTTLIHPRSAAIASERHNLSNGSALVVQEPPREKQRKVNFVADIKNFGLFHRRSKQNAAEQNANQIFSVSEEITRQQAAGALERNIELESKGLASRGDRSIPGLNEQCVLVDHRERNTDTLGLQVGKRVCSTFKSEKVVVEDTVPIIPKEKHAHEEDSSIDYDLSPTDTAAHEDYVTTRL
# Only a part is listed here, and it is no random draw. Some salts or complexes appear as unconnected parts, following the source record. Active and inactive are the calls of the source.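 How the source made its calls: active means B-score of calcium response area above 5 SD of library B-scores, with initial fluorescence ratio within 5 SD of library; inactive means the rest.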
# Molecular target: Short transient receptor potential channel 4 (Mus musculus) (UniProt Q9QUQ5)
# Assay: positive allosteric modulators of TRPC4, primary screen, cell-based, mouse TRPC4beta, HEK293 mu-opioid, Fluo-4 calcium (AID 2227);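 on B-score: B-score of integrated fluorescence ratio over time as area under calcium response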
# Conditions: DAMGO EC20, Fluo-4 Ca2+ flux, at 10 µM; hits give high values
Compound,outcome,B-score
Nc1ccc2c(ccc3cccnc32)n1.O=[N+]([O-])c1cc([N+](=O)[O-])c(O)c([N+](=O)[O-])c1,inactive,
CP(=O)(OC12CC3CC(CC(C3)C1)C2)OC12CC3CC(CC(C3)C1)C2,inactive,
CCOC(=O)c1ccc(NP(C)(=O)Oc2ccc(Cl)cc2)cc1 (stereo not given),inactive,
O=C(Nc1cc([As](=O)(O)O)ccc1O)c1ccccc1,inactive,
O=[N+]([O-])c1ncn(CCn2ncnc2[N+](=O)[O-])n1,inactive,
CC(C)(C)C(=O)NC(Sc1ccncn1)C(Cl)(Cl)Cl (stereo not given),inactive,
O=C(O)CNc1ccc([As](=O)(O)O)cc1,inactive,
O=[N+]([O-])c1cccc(NC2=NCC(CBr)S2)c1 (stereo not given),inactive,
CCN(CC)CC(O)COC(=O)C(O)(c1ccccc1)C1CCCCC1 (stereo not given),inactive,
COc1ccc(OP(C)(=O)Nc2ccc(Br)cc2)cc1 (stereo not given),inactive,
COc1ccc(C2=NCC(CBr)S2)cc1 (stereo not given),inactive,
CP(=O)(Oc1ccccc1)N1CCOC1=O (stereo not given),inactive,
Cc1ccc(NP(=O)(Oc2ccccc2)Oc2ccccc2)nc1,inactive,
CCc1ccc(OP(C)(=O)Nc2cccnc2)cc1 (stereo not given),inactive,
O=[N+]([O-])c1cc([N+](=O)[O-])c(CCNc2ccccc2)c([N+](=O)[O-])c1,inactive,
CCc1nc2c(n1)c1c(non1O)c1c2no[n+]1[O-],inactive,
CC(=O)N1C2C3N(C(C)=O)C1C1N(C(C)=O)C(C(N1C(C)=O)N3C(C)=O)N2C(C)=O,inactive,
O=[N+]([O-])c1cccc2n[nH]nc12,inactive,
COc1ccccc1OP(C)(=O)Nc1c(C)n(C)n(-c2ccccc2)c1=O (stereo not given),inactive,
O=C(OCCCN1CCCC1)C(O)(c1ccccc1)C1CCCCC1 (stereo not given),inactive,
CCN(/C(=N/P(=O)(N1CCOCC1)N1CCOCC1)N1CCOCC1)c1ccc(OC)cc1,inactive,
CP(=O)(Nc1ccc(Cl)cc1)Oc1ccc(F)cc1 (stereo not given),inactive,
COc1ccccc1OP(C)(=O)Nc1ccccc1Br (stereo not given),inactive,

Compound,outcome,B-score
Nc1ccc([As](=O)(O)c2ccc(N)cc2)cc1,inactive,
CC(C)(C)c1ccc(OP(C)(=O)O)cc1,inactive,
C[N+]1=C2C=CC=CC=C2SC12C([N+](=O)[O-])=CC([N+](=O)[O-])=C[C-]2[N+](=O)[O-] (stereo not given),inactive,
CC1CCN(C(=O)Oc2c(Cl)cc(Cl)c3cccnc23)CC1,inactive,
CC(C)=N/N=C(\N)N[N+](=O)[O-],inactive,
CN(C)C(=O)c1c([N+](=O)[O-])cc([N+](=O)[O-])cc1[N+](=O)[O-],inactive,
CN(C)C(=O)OCCc1n(C)cc[n+]1C,inactive,
COc1ccccc1OP(C)(=O)Nc1ccc(Br)cc1 (stereo not given),inactive,
Cc1ccc(N/C(=N/P(=O)(N2CCOCC2)N2CCOCC2)N2CCOCC2)cc1,inactive,
NC(=O)c1cc([N+](=O)[O-])cc([N+](=O)[O-])c1N,inactive,
CN1CCCC(OC(=O)C(c2ccccc2)c2ccccc2)C1 (stereo not given),inactive,
CN(C)CCOC(=O)C(O)(c1ccccc1)C1CCCC1 (stereo not given),inactive,
Clc1ccc(Cl)c(NC2=NCC(CBr)S2)c1 (stereo not given),inactive,
COc1ccccc1OP(=O)(Nc1ccc(C)cn1)Oc1ccccc1OC,inactive,
COc1ccc(OP(C)(=O)Nc2ccccn2)cc1 (stereo not given),inactive,
Cc1ccc(OP(=O)(Nc2nccs2)Oc2ccc(C)cc2)cc1,inactive,
Oc1ccccc1CNc1ccccn1,inactive,
O=C(NC(Sc1ccncn1)C(Cl)(Cl)Cl)c1ccccc1 (stereo not given),inactive,
Cc1c2non([O-])c-2c(C)[n+](=O)[n+]1[O-],inactive,
Nc1cc(N)c2nonc2c1[N+](=O)[O-],inactive,
Cc1c(NP(C)(=O)Oc2ccc(C(C)C)cc2)c(=O)n(-c2ccccc2)n1C (stereo not given),inactive,
O=[N+]([O-])c1cc([N+](=O)[O-])c(Nc2ccccn2)c([N+](=O)[O-])c1,inactive,
CC(C)CC(=O)NC(Sc1ccc(Cl)cc1)C(Cl)(Cl)Cl (stereo not given),inactive,

Compound,outcome,B-score
CCc1ccc(OP(C)(=O)O)cc1,inactive,
CP(=O)(Nc1ccccn1)Oc1ccccc1 (stereo not given),inactive,
COc1ccccc1OP(C)(=O)Nc1ccc(C)cc1C (stereo not given),inactive,
O=P(Nc1nc2ccc(Cl)cc2s1)(c1ccccc1)c1ccccc1,inactive,
Cc1cc(C)cc(OP(C)(=O)Nc2cccc(C(F)(F)F)c2)c1 (stereo not given),inactive,
CC(=O)Nc1ccc([As](=O)(O)O)cc1,inactive,
O=C(O)c1ccccc1[As](=O)(O)O,inactive,
COc1ccc(OP(C)(=O)Nc2ccccc2Br)cc1 (stereo not given),inactive,
Cc1cc(SC(NC(=O)c2ccc(F)cc2)C(Cl)(Cl)Cl)ncn1 (stereo not given),inactive,
CCOP(=O)(Nc1ccccc1)OCC,inactive,
COc1ccccc1OP(C)(=O)Nc1ccc(C)c(C)c1 (stereo not given),inactive,
CN(C(=O)Cc1ccc(Cl)c(Cl)c1)[C@H]1CCCC[C@@H]1N1CCCC1,inactive,
Cc1ccc(NP(=O)(Oc2ccccc2F)Oc2ccccc2F)nc1,inactive,
O=[N+]([O-])c1cc([N+](=O)[O-])c(CCN2CCOCC2)c([N+](=O)[O-])c1,inactive,
Cc1nc2ccc3ccccc3c2o1.O=[N+]([O-])c1cc([N+](=O)[O-])c(O)c([N+](=O)[O-])c1,inactive,
Nc1cccc2ccc([As](=O)(O)O)cc12,inactive,
CP(=O)(Nc1ccc(Cl)cc1Cl)Oc1ccccc1 (stereo not given),inactive,
CP(=O)(OCCOc1ccccc1)OCCOc1ccccc1,inactive,
CCN(N=Nc1nonc1N)c1nonc1N,inactive,
c1ccc(-c2nn[nH]n2)c(-c2nn[nH]n2)c1,inactive,
Cc1ccc(NP(=O)(Oc2cccc(C)c2)Oc2cccc(C)c2)nc1,inactive,
CCOC(=O)NC(Sc1ccccc1)C(Cl)(Cl)Cl (stereo not given),inactive,
O=C(NC1CCS(=O)(=O)C1)NP(=S)(Oc1ccccc1)Oc1ccccc1 (stereo not given),inactive,

Compound,outcome,B-score
CCNC(=S)/N=C(\N)N[N+](=O)[O-],inactive,
COc1ccc(OP(C)(=O)Nc2ccc(SC(F)(F)F)cc2)cc1 (stereo not given),inactive,
CCOC(=O)c1ccc(NP(C)(=O)Oc2ccc(F)cc2)cc1 (stereo not given),inactive,
O=C(OC1CN2CCC1CC2)c1ccccc1 (stereo not given),inactive,
CCC(=O)N1C2C3N(C(=O)CC)C1C1N(C(=O)CC)C(C(N1C(=O)CC)N3C(=O)CC)N2C(=O)CC,inactive,
CCN(CC)CCCOC(=O)C(O)(c1ccccc1)C1CCCCC1 (stereo not given),,active: 10
COC(=O)c1cc2c(s1)N=C(c1ccccc1)N(C)P2(=O)N1CCOCC1 (stereo not given),inactive,
CC(=O)NC(SC(=S)N(CC(C)C)CC(C)C)C(Cl)(Cl)Cl (stereo not given),inactive,
Cc1ccc(OP(=O)(Nc2ccccn2)Oc2ccc(C)cc2)cc1,inactive,
Cc1ccccc1OP(=O)(Nc1ccccn1)Oc1ccccc1C,inactive,
CCCCCOc1ccc(NP(C)(=O)Oc2ccc(Cl)cc2Cl)cc1 (stereo not given),inactive,
O=[N+]([O-])c1cc([N+](=O)[O-])c(OC2CCCCC2O)c([N+](=O)[O-])c1 (stereo not given),inactive,
CN(C)C(=O)Oc1noc2ccccc12,inactive,
CP(=O)(Nc1ccccc1)Oc1ccc(F)cc1 (stereo not given),inactive,
O=P1(Nc2nc3ccc(Cl)cc3s2)COc2ccccc2O1 (stereo not given),inactive,
CCOc1ccc(C2=NCC(CBr)S2)cc1 (stereo not given),inactive,
CC(C)(C)C(=O)NC(Sc1ccccc1)C(Cl)(Cl)Cl (stereo not given),inactive,
CC(C)c1ccc(OP(C)(=O)Nc2ccc(SC(F)(F)F)cc2)cc1 (stereo not given),inactive,
CP(=O)(Nc1ccccc1F)Oc1ccccc1 (stereo not given),inactive,
O=C(OCCN1CCN(CCOCc2ccccc2)CC1)C(O)(c1ccccc1)c1ccccc1,inactive,
C[C@H]1OP(=O)(Oc2ccccc2)C[C@@H]2O[C@@H]21 (stereo not given in full),inactive,
C[C@@H]1C=CCP(=O)(Oc2ccccc2)O1 (stereo not given in full),inactive,
CC(=O)c1ccc(N2CC2c2ccncc2)cc1 (stereo not given),inactive,

Compound,outcome,B-score
O=C(OC1CN2CCC1CC2)c1ccc([N+](=O)[O-])cc1 (stereo not given),inactive,
CC(=O)Nc1ccc([As](=O)(O)O)c(O)c1,inactive,
COc1ccc2c(c1O)-c1c(O)c(OC)cc3c1[C@H](C2)[N+](C)(C)CC3.O=[N+]([O-])c1cc([N+](=O)[O-])c([O-])c([N+](=O)[O-])c1[O-],inactive,
CC(=O)Nc1ccc(Oc2c([N+](=O)[O-])cc([N+](=O)[O-])cc2[N+](=O)[O-])cc1,inactive,
O=P(Nc1nccs1)(c1ccccc1)c1ccccc1,inactive,
CC(C)C(=O)NC(Sc1ccccc1)C(Cl)(Cl)Cl (stereo not given),inactive,
CP(=O)(Nc1ccc(SC(F)(F)F)cc1)Oc1ccc(F)cc1 (stereo not given),inactive,
c1nnnn1CCn1cnnn1,inactive,
CCOP(C)(=S)SCC(=O)NC(C)(CC)C(=O)O (stereo not given),inactive,
CP(=O)(Nc1ccc2c(c1)OCCO2)Oc1ccccc1 (stereo not given),inactive,
CN(C)C1(CNC(=O)c2ccc(Cl)c(S(N)(=O)=O)c2)CCCCC1,inactive,
O=P(Nc1ccccn1)(c1ccc(Br)cc1)c1ccc(Br)cc1,inactive,
COc1ccc(OP(C)(=O)Nc2cccc(Br)c2)cc1 (stereo not given),inactive,
COc1ccc(NP(C)(=O)Oc2ccccc2OC)cc1 (stereo not given),inactive,
O=P(Nc1nc2ccccc2s1)(c1ccccc1)c1ccccc1,inactive,
CN(C)CCOC(=O)C(O)(c1ccccc1)C1CCCCC1 (stereo not given),inactive,
C[C@H]1OP(=O)(Oc2ccccc2)[C@H](O)[C@H](O)[C@H]1N=[N+]=[N-] (stereo not given in full),inactive,
O=[As](O)(c1ccccc1)c1ccc(O)cc1,inactive,
Cc1cc(-c2cccc3ccccc23)c(C)cn1.O=[N+]([O-])c1cc([N+](=O)[O-])c(O)c([N+](=O)[O-])c1,inactive,
O=[N+]([O-])c1cc([N+](=O)[O-])c(NCC2CCS(=O)(=O)C2)c([N+](=O)[O-])c1 (stereo not given),inactive,
CC(=O)NC(SC(=S)N(C)C)C(Cl)(Cl)Cl (stereo not given),inactive,
O=[N+]([O-])c1ccc(OP2(=O)COCCO2)cc1 (stereo not given),inactive,
O=[N+]([O-])c1ncn(CCn2cnc([N+](=O)[O-])n2)n1,inactive,
